Target: Kappa-type opioid receptor (Homo sapiens, UniProt P41145)
Assay: Effective dose for agonistic activity towards human kappa opioid receptor from membranes of HEK293 cells was determined by radiolabeled [35S]GTP-gamma-S, assay
Type: functional, cell membranes

The chains behind the UniProt entries cited, without tags or fusion partners. Where a name states a change or a piece, a line headed by the entry shows the natural chain unless it says otherwise.
UniProt P41145: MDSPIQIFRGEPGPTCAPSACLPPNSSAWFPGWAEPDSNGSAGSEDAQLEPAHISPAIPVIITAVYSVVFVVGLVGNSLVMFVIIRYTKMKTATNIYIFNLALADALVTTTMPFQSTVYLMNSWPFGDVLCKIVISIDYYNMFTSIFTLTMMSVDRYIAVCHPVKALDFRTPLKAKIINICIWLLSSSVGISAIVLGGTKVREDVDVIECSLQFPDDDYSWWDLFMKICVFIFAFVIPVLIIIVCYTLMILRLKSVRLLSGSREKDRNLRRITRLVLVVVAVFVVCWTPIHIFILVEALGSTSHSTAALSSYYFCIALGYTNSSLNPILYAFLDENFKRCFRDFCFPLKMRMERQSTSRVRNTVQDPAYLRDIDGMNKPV

## CN(C(=O)Cc1ccccc1)[C@H]1CC[C@@]2(CCCO2)C[C@@H]1N1CCCC1
  ED50: 24 nM
